The source of these data is US8846363B2, “Compositions of and methods of using sulfatases from Flavobacterium heparinum” (priority 2007, dated 2014).

The chains behind the UniProt entries cited, without tags or fusion partners. Where a name states a change or a piece, a line headed by the entry shows the natural chain unless it says otherwise.
UniProt C6Y1N4, entry or part of it: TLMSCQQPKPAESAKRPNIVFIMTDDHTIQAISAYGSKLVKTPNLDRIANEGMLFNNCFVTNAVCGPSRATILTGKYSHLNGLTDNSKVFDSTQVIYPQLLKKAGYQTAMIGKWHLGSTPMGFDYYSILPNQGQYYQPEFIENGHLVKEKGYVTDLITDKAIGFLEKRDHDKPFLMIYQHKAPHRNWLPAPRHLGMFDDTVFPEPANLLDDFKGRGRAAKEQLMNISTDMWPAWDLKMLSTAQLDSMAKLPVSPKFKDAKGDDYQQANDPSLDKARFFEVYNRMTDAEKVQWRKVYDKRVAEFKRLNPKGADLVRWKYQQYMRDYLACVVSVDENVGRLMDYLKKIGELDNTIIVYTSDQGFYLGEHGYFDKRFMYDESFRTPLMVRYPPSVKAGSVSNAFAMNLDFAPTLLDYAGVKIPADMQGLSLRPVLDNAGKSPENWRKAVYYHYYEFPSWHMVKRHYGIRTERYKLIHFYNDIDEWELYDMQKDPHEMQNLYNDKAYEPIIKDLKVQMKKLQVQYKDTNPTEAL

The target of the assay is T1, Flavobacterium heparinum 6-O-sulfatase (ORF B), recombinant, NH2-terminal truncation lacking signal sequence, SEQ ID NO: 2 (Pedobacter heparinus, UniProt C6Y1N4).
T1 construct: E. coli BL21(DE3), N-terminal 6xHis removed by thrombin
The assay can be described thus: Inhibition of 6-O-sulfatase activity (sulfate, phosphate, chelators). The conditions noted are these: normalized to 0 sulfate or phosphate added; read-out: concentration for 50% inhibition of 6-O-sulfatase activity. The assay is classed as biochemical.

As to phosphate, the IC50 was ~2000 µM.
